Converted amounts (≈) assume the structure as drawn. Like-named read-outs stand apart in the source and are kept apart here.
Assay: Peptide solubility in PBS/H2O/DMSO
Assay type: physicochemical
Method: Peptide identity and purity are documented by mass spectrometry and high-performance liquid chromatography (HPLC). The peptide solubility values are determined. Concentrated peptide stocks are prepared in DMSO or H2O and stored frozen at −80° C.

- solubility (DMSO, Table 4, third of PBS/H20/DMSO, read-out: Solubility in DMSO): 10 mg/mL (≈ 4750 µM)
- solubility (DMSO, third of PBS/H2O/DMSO, read-out: Solubility in DMSO): 10 mg/mL (≈ 4750 µM)
- solubility (H2O, second of PBS/H2O/DMSO, read-out: Solubility in H2O): 5 mg/mL (≈ 2370 µM)
- solubility (PBS, Table 4, first of PBS/H20/DMSO, read-out: Solubility in PBS): < 0.1 mg/mL
- solubility (PBS, first of PBS/H2O/DMSO, read-out: Solubility in PBS): < 0.1 mg/mL
- solubility (water, Table 4, second of PBS/H20/DMSO, read-out: Solubility in H20): 5 mg/mL (≈ 2370 µM)
SMILES: CC(C)C[C@H](NC(=O)[C@H](Cc1c[nH]c2ccccc12)NC(=O)[C@H](C)NC(=O)CNC(=O)[C@@H](N)CSCC(N)=O)C(=O)N[C@@H](C)C(=O)N[C@@H](Cc1ccc(O)cc1)C(=O)N1CCC[C@H]1C(=O)N[C@@H](CC(=O)O)C(=O)N[C@@H](CO)C(=O)N[C@H](C(=O)N1CCC[C@H]1C(=O)N[C@@H](Cc1ccc(O)cc1)C(=O)N[C@@H](CCCNC(=N)N)C(=O)N1CCC[C@H]1C(=O)N[C@@H](CCCCNC(=O)CCCC[C@@H]1SC[C@@H]2NC(=O)N[C@@H]21)C(=O)O)C(C)C [compound 10]

From patent publication US20230391826A1, “COMPOSITIONS AND METHODS FOR TREATING DISEASES” (Sanford Burnham Prebys Medical Discovery Institute, priority 2020, published 2023)
